Consider eleven compounds from PubChem BioAssay (Tox21).

By UniProt entry, the sequences of proteins in these tests, tags left out.
UniProt P10275, whole entry: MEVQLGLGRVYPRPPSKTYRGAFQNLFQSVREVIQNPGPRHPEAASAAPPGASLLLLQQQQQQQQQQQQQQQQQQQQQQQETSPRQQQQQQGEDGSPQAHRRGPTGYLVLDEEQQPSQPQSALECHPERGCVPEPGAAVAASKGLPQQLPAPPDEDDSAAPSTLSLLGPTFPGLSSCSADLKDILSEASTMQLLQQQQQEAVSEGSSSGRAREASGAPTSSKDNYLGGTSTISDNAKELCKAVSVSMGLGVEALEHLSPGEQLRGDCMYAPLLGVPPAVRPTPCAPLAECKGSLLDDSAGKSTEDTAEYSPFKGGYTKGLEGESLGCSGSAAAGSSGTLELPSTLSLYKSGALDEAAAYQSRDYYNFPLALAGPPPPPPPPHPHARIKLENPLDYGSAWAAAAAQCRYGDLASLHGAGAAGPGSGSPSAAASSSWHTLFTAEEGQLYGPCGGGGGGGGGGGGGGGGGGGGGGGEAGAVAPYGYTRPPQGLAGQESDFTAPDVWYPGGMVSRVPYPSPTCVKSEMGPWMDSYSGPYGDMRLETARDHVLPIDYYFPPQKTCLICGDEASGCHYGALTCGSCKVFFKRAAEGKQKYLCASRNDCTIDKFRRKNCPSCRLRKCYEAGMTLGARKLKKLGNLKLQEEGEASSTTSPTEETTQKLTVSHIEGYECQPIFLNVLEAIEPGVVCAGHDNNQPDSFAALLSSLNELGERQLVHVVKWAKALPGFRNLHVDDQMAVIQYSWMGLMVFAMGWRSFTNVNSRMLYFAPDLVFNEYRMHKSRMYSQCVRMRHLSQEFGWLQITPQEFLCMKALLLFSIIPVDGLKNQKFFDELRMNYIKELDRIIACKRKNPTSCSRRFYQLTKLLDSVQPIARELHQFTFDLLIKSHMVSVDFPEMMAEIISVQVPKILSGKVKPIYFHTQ
UniProt P03372, whole entry: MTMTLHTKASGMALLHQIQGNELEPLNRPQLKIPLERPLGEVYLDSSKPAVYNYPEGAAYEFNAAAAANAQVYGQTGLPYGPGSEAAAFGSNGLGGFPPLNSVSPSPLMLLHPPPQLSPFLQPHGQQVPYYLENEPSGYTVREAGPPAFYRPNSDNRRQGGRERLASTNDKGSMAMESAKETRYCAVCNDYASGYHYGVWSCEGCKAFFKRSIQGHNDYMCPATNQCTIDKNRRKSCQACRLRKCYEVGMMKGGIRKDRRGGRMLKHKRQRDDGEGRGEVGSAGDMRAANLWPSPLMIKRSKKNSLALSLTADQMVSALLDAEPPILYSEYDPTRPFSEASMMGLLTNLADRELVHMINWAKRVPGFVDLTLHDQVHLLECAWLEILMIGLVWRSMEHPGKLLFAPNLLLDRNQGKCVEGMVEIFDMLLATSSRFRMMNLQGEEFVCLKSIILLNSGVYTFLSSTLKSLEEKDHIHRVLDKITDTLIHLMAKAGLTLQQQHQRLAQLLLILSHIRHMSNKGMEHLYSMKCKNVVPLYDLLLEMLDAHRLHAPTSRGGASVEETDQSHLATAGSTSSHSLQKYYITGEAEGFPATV
UniProt Q92731, whole entry: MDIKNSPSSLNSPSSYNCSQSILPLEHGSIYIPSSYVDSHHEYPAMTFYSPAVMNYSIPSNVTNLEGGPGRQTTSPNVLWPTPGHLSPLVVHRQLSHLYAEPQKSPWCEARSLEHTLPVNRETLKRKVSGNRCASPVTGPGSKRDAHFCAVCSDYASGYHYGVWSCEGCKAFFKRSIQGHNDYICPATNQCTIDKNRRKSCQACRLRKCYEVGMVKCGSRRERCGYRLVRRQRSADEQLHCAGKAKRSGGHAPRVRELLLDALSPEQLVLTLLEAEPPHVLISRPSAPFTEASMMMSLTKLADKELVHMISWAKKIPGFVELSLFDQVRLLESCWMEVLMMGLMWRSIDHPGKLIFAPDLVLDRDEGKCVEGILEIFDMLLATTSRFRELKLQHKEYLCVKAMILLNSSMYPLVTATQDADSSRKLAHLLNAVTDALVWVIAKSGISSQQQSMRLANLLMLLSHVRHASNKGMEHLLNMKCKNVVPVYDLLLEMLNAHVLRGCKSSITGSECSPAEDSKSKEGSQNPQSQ

Experiment [1] in a line: qHTS RealTime-Glo MT Cell Viability Assay in HEK293 cells - 8 hour (AID 1224887). Also: top concentration of the series differs between compounds; nearly all actives have a fitted effect of over 50% in size. The settings on record: RealTime-Glo luminescence; at 76.8 µM (top of the series) unless noted. Put shortly:
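Kinetic, non-lysing viability readout. Seed HEK293 (600/well) with reagent, incubate 5 h at 37 C/5% CO2, pin 23 nL compound in DMSO, incubate at 37 C, read luminescence at 0, 8, 16, 24, 32, 40 h.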
A general note: Quantitative high-throughput screening tests each substance at several concentrations.

A short description of experiment [2]: A CellTox Green Cytotoxicity Assay to monitor cytotoxicity in HepG2 cells - 8 hour (AID 1224890). Also: nearly all actives have a fitted effect of over 45% in size. Also: potency is read from the fitted curve at half-maximal effect. An outline of the steps: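 Cytotoxicity was tracked as dead-cell DNA fluorescence in HepG2 cells treated with test compounds at 37 C; each time-point value comes from one kinetic series spanning 0, 8, 16, 24, 32 and 40 h.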
Experiment [3] is described as follows: qHTS assay to identify small molecule antagonists of the androgen receptor (AR) signaling pathway using the MDA cell line in the presence of 0.5 nM R1881 - cell viability counter screen (AID 1259242). Also: nearly all actives have a fitted effect of over 45% in size. The following applies: MDA-kb2 viability, CellTiter-Fluor protease fluorescence, 16 h. An outline of the steps:
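Cells seeded at 3,000/well and allowed 5 hr at 37C, 0% CO2 before compound transfer and R1881 (0.5 nM final) addition; 16 hr later, live-cell protease fluorescence indicated cytotoxicity.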

Experiment [4] concerns the target Androgen receptor (Homo sapiens) (UniProt P10275). The experiment can be described thus: qHTS assay to identify small molecule antagonists of the androgen receptor (AR) signaling pathway using the MDA cell line in the presence of 0.5 nM R1881 (AID 1259243). Also: nearly all actives have a fitted effect of over 50% in size.
Experiment [5] concerns the target Estrogen receptor (Homo sapiens) (UniProt P03372). Kind of experiment: qHTS assay to identify small molecule antagonists of the estrogen receptor alpha (ER-alpha) signaling pathway using the BG1 cell line in the presence of 0.1 nM 17-beta-estradiol (AID 1259244). Also: nearly all actives have a fitted effect of over 50% in size. The settings on record: VM7Luc4E2 (BG1) ERE-luciferase, antagonist mode, 0.1 nM E2, 22 h; at 92.4 µM (top of the series) unless noted.

Experiment [6] can be described thus: qHTS assay to identify small molecule HDAC inhibitors (AID 1259364).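 Also: wild-type HCT-116 cells with endogenous class I/II HDAC activity; top concentration of the series differs between compounds; nearly all actives have a fitted effect of over 45% in size.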 Put shortly:
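HCT-116 wt cells, 1,500/well, overnight attach. Compounds (DMSO) 2 h, 37 °C. HDAC-Glo I/II, 30 min RT. Luminescence.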

Experiment [7] can be described thus: qHTS assay to identify small molecule HDAC inhibitors - cell viability counter screen (AID 1259365). Also: nearly all actives have a fitted effect of over 50% in size. The settings on record: HCT-116 viability, CellTiter-Glo ATP luminescence, 2 h; at 92.4 µM (top of the series) unless noted. An outline of the steps: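 After overnight seeding at 1,500 cells per well, wild-type HCT-116 cultures took up compounds in DMSO for 2hr at 37 C. Viable cell content came from luminescence with CellTiter-Glo.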

The nature of experiment [8]: qHTS assay to identify small molecule agonists of the sonic hedgehog signaling (Shh) pathway - cell viability counter screen (AID 1259366). Also: nearly all actives have a fitted effect of over 50% in size. Also: potency is read from the fitted curve at half-maximal effect. An outline of the steps:
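Same-well cytotoxicity read. Gli1-Luc reporter 3T3 cells; compounds 24hr, 37C/5% CO2; CellTiter-Fluor fluorescence.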

Experiment [9] is described as follows: qHTS assay to identify small molecule antagonists of the sonic hedgehog signaling (Shh) pathway (AID 1259369; calls by dose curve; also: nearly all actives have a fitted effect of over 45% in size; also: potency is read from the fitted curve at half-maximal effect). An outline of the steps: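 Read-out is luminescence from a firefly luciferase gene controlled by the Gli1 response element, in 3T3Gli1-Luc cells pre-incubated 4hr then exposed to compounds and conditioned medium for 24hr.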
The target of experiment [10] is Estrogen receptor beta (Homo sapiens) (UniProt Q92731). The experiment can be described thus: qHTS assay to identify small molecule agonists of the estrogen receptor beta (ER-beta) signaling pathway (AID 1259377; active = well fitted activation curve with a large enough effect in the signal ratio in the repeat runs, not every such curve was filed as active; the % refers to the signal ratio). The following applies: ER-beta-UAS-bla HEK293T, beta-lactamase FRET ratio, 16 h; at 92.4 µM (top of the series) unless noted.

The structures appear in SMILES notation. “And” between values parts separate entries of the source, which are not always exact repeats. Equal entries are not always repeated. The list shows a part of the results, in another mix than the full data. Results filed as inconclusive are left out. A structure can be active in one record and inactive in another. The source made the active and inactive calls. Unless noted, calls follow the shape of the dose curve; as a rule, active = well fitted curve in the direction sought with a large enough effect in the repeat runs; inconclusive = weak or mixed curves; inactive = no such curve, though single readings can be large; an effect the other way counts as inactive or inconclusive.
% is scaled to controls: 0 for no effect and ±100 for the full control effect.

`N#CBr`: the activity change, negative = cytotoxicity is inactive: 4.3% in experiment [1] and inactive: 0% in experiment [7]. For the same compound, the Potency entry in experiment [2], in experiment [4], in experiment [6], in experiment [8] and in experiment [9] was “inactive” throughout. In addition, in [3] (at 92.4 µM (top of the series)), the viability change, negative = cytotoxic is inactive: -0.7%. Also, the activity change, negative = inhibition in [5] is inactive: 7.5%. Moreover, the activation in experiment [10] was inactive: -1.86%.

Consider `O=[N+]([O-])[O-].[NH4+]`, for which the activity change, negative = cytotoxicity in [1] was inactive: 2.36% and inactive: 0.928%; in experiment [7] it was inactive: -0.889% and inactive: 4.85%. For the same compound, the Potency entry in experiment [2] is “inactive and active: 38.9 µM”. For the same compound, the Potency entry in experiment [6], in [8] and in experiment [9] was “inactive” throughout.

On to `Nc1cc([N+](=O)[O-])cc([N+](=O)[O-])c1O`, for which the activity change, negative = cytotoxicity was inactive: -0.171% in [1] and inactive: -18% in experiment [7]. The Potency result in [2] and in experiment [9] was “inactive” each time. The activity change, negative = inhibition in [5] is inactive: -16.7%.

In the case of `CCN(CC)CCCl`, the figures for the activity change, negative = cytotoxicity in experiment [1] and in experiment [7] were inactive: -3.09% and inactive: -1.63%, respectively. Further, the Potency result in experiment [2], in experiment [4] and in [6] was “inactive” in each case. For the same compound, in [3] (at 92.4 µM (top of the series)), the viability change, negative = cytotoxic is inactive: 2.04%. Further, the activity change, negative = inhibition in experiment [5] was inactive: -13.4%.

For `CCOP(=O)(CC)OCC`, the activity change, negative = cytotoxicity was inactive: 3.66% in experiment [1] and inactive: 0.457% in [7]. Moreover, the Potency result in [2], in [6], in experiment [8] and in experiment [9] was “inactive” each time. The viability change, negative = cytotoxic in experiment [3] (at 92.4 µM (top of the series)) is inactive: 2.11%. Also, in [10], the activation is inactive: -0.217%.

Take `C/C1=C2N=C(/C=C3N=C(/C(C)=C4\[N-][C@@](C)([C@@H]5N=C1[C@](C)(CCC(=O)NC[C@@H](C)OP(=O)([O-])O[C@H]1[C@@H](O)[C@@H](n6cnc7cc(C)c(C)cc76)O[C@@H]1CO)[C@H]5CC(N)=O)[C@@](C)(CC(N)=O)[C@@H]4CCC(N)=O)[C@@](C)(CC(N)=O)[C@@H]\3CCC(N)=O)C(C)(C)[C@@H]/2CCC(N)=O.[C-]#N.[Co+3]`: the activity change, negative = cytotoxicity in [1] is inactive: -10.7% [at 35.3 µM]; in experiment [7], inactive: -10.7% [at 42.5 µM]. The Potency result in experiment [2], in [6], in experiment [8] and in [9] was “inactive” in each case. Also, in experiment [3] (at 42.5 µM (top of the series)), the viability change, negative = cytotoxic was inactive: -20.1%. Also, the activity change, negative = inhibition in experiment [5] was inactive: -26.5% [at 42.5 µM]. Further, the activation in [10] is inactive: -1.92% [at 42.5 µM].

On to `Cc1ccc([N+](=O)[O-])cc1[N+](=O)[O-]`, for which, in [1], the activity change, negative = cytotoxicity is inactive: 0.794% and inactive: 4.6%. The Potency entry in experiment [2] and in [6] was “inactive” each time. The viability change, negative = cytotoxic in experiment [3] (at 92.4 µM (top of the series)) is inactive: 3% and inactive: 2.07%. Besides, the activity change, negative = inhibition in experiment [5] was inactive: -13.2% and inactive: -4.71%. Further, the Potency in [8] is active: 13.5 µM and inactive.

In the case of `CN(C)CCCl`, the values for the activity change, negative = cytotoxicity in experiment [1] and in [7] were inactive: -2.63% and inactive: 2.56%, respectively. The Potency entry in [2], in experiment [4], in experiment [6] and in experiment [8] was “inactive” each time. The viability change, negative = cytotoxic in [3] (at 92.4 µM (top of the series)) was inactive: 0.487%. In addition, the Potency in experiment [9] is active: 54.5 µM.

With `COc1ccc([N+](=O)[O-])cc1[N+](=O)[O-]`, the activity change, negative = cytotoxicity was inactive: 3.6% in experiment [1] and inactive: -2.27% in experiment [7]. In addition, the Potency entry in [2], in [6], in [8] and in experiment [9] was “inactive” in each case. Further, the viability change, negative = cytotoxic in [3] (at 92.4 µM (top of the series)) was inactive: 0.656%. Besides, in experiment [5], the activity change, negative = inhibition was inactive: -0.771%.

Regarding `O=[N+]([O-])OCC(CO[N+](=O)[O-])(CO[N+](=O)[O-])CO[N+](=O)[O-]`, the activity change, negative = cytotoxicity was inactive: 2.14% in [1] and inactive: -2.05% in experiment [7]. Besides, the Potency entry in experiment [2], in experiment [4], in experiment [6], in experiment [8] and in experiment [9] was “inactive” throughout. For the same compound, the viability change, negative = cytotoxic in experiment [3] (at 92.4 µM (top of the series)) is inactive: 2.42%. In addition, the activity change, negative = inhibition in experiment [5] is inactive: -2.2%. Moreover, the activation in experiment [10] was inactive: 0.973%.

Turning to `O=[N+]([O-])c1cccc([N+](=O)[O-])c1`, the Potency in [2] is active: 51 µM. Moreover, the viability change, negative = cytotoxic in experiment [3] (at 92.4 µM (top of the series)) is inactive: 6.73%. Besides, the Potency entry in experiment [6] and in experiment [8] was “inactive” throughout. The activity change, negative = cytotoxicity in experiment [7] was inactive: -12.9%.
